The record followed here is ChEMBL document CHEMBL1145152, “Design, synthesis, and antifolate activity of new analogues of piritrexim and other diaminopyrimidine dihydrofolate reductase inhibitors with omega-carboxyalkoxy or omega-carboxy-1-alkynyl substitution in the side chain” (J Med Chem, 2005).

For the test, the system named is Dihydrofolate reductase (Pneumocystis carinii). The settings on record: Mycobacterium avium.

`COc1ccc(OCCCC(=O)O)cc1Cc1cnc2nc(N)nc(N)c2c1C` displayed a Selectivity index of 5.1.
